Structures are written as SMILES. Several values for one entry are separate records, joined by “and”; a condition that tells them apart may be missing. Equal entries are not always repeated. This is a selection; strong and weak results do not stand in their true shares. Activity calls are given as the source filed them. The call rests on the fitted dose curve; in most records, active means well fitted inhibition curve with a large enough effect; inconclusive means small, poorly fitted or top-dose-only effect, or effect the other way; inactive means flat fitted curve, though single readings scatter.
On the % scale 0 is the no-effect control and ±100 the full control effect.

Amino acid sequences for entries named in this document (tags omitted). A change or cut given only in a name is not applied to a line headed by its entry.
UniProt O00167: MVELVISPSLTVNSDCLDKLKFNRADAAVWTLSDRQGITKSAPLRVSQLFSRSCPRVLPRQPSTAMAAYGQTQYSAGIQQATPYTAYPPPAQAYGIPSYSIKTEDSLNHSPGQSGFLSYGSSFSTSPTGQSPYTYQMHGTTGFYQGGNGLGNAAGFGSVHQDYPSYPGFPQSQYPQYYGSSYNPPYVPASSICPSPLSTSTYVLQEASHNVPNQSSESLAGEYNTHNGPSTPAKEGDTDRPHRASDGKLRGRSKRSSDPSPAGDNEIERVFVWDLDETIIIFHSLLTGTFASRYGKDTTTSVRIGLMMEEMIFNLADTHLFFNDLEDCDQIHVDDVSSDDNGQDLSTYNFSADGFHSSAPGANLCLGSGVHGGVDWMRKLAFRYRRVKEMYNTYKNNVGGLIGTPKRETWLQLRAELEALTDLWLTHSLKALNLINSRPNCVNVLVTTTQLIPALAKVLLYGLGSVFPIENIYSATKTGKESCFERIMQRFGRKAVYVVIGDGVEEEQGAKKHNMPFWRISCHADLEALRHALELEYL

The experiment addresses Protein phosphatase EYA2 (Homo sapiens) (UniProt O00167). The experiment in a line: qHTS Assay for Inhibitors of the Phosphatase Activity of Eya2. The note with it: recombinant Eya2, OMFP fluorescence dephosphorylation (OMFP is methylfluorescein phosphate); at 76.9 µM (top of the series) unless noted. From the text: The Eya family of proteins are essential co-activators of the Six1 transcription factor. Six1 is a developmental gene that is abnormally re-expressed in a large percentage of breast cancers. This over-expression plays a causal role in the initiation and metastatic development of breast cancers. The Eya family of proteins was also found to contain a unique HAD phosphatase domain with protein tyrosine phosphatase activity which can potentially play a role in Six1-mediated breast tumorigenesis. […] We have developed and optimized a 1536 well fluorescence-based HTS assay targeting the phosphatase activity of Eya2. Inhibitors found against Eya2 could serve as potential therapeutic tools to inhibit Six1-mediated breast tumorigenesis and to increase the efficiency of radiation and certain chemo therapy. These inhibitors could also be used as chemical probes to study the function of Eya2's phosphatase activity and its role in Six1-mediated breast tumorigenesis.
The Eya2 enzyme was kindly provided by the laboratory of Dr. Rui Zhao. The 3-O-methyl-fluorescein phosphate (OMFP) substrate and all buffer reagents were purchased from Sigma Aldrich. qHTS Assay Setup: 1. Buffer- 50 mM HEPES pH 7.5, 50 mM NaCl, 5 uM MgCl2, 0.05% BSA, 1 mM DTT. 2. OMFP Stock- 10 mM solution prepared in 100% DMSO and stored in single use aliquots at -20C. Assay Procedure- 1. Dispense 1.5 ul per well of Eya2 at 0.2 uM in black medium binding 1536 well Greiner plate 2. Transfer 23 nl of compound and control compound (EGTA) to plate 3. Incubate at ambient for 10 minutes 4. Dispense 1.5 ul per well of OMFP at 50 uM 5. Incubate at ambient for 10 minutes 6. Read on ViewLux using Excitation = 485 nm, Emission = 525 nm
Turning to `O=[N+]([O-])c1ccc(O)c(/C=N/Nc2ccc([N+](=O)[O-])cc2[N+](=O)[O-])c1`, the activity, negative = inhibition is inactive: 14.1%.
With `O=[As](O)(c1ccccc1)c1ccc(O)cc1` the figure was inactive: 15%; with `Nc1ccc([As](=O)(O)c2ccc([N+](=O)[O-])cc2)cc1`, inactive: 11.9%.
With `C(Cc1nn[nH]n1)Cc1nn[nH]n1` the figure was inactive: 3.66%.
For `O=C(OC1CN2CCC1CC2)c1cccc(Cl)c1` (stereo not given) the value was inactive: 21.6%.
Consider `O=P(Nc1nccs1)(c1ccccc1)c1ccccc1`, for which the activity, negative = inhibition was inactive: 3.01%.
For `CC(C)C(=O)NC(Sc1ccccc1)C(Cl)(Cl)Cl` (stereo not given), the activity, negative = inhibition was inactive: -23.6%.
With `c1nnnn1CCn1cnnn1`, the activity, negative = inhibition is inactive: 17.1%.
With `COc1ccc(C2=NCC(CBr)S2)cc1` (stereo not given) the figure was inactive: -2.47%; with `CC(=O)N1C2C3N(C(C)=O)C1C1N(C(C)=O)C(C(N1C(C)=O)N3C(C)=O)N2C(C)=O`, inactive: 10.7%; with `O=[N+]([O-])c1cccc2n[nH]nc12`, inactive: 22%.
With `Cc1ccc(NP(=O)(Oc2ccccc2)Oc2ccccc2)nc1` the figure was inactive: -2.38%.
For `O=[N+]([O-])c1cc([N+](=O)[O-])c(CCNc2ccccc2)c([N+](=O)[O-])c1` the value was inactive: -2.1%.
Take `CCc1nc2c(n1)c1c(non1O)c1c2no[n+]1[O-]`: the activity, negative = inhibition was inactive: 20.1%.
As to `Nc1ccc([As](=O)(O)c2ccc(N)cc2)cc1`, the activity, negative = inhibition is inactive: -15.6%.
With `C[N+]1=C2C=CC=CC=C2SC12C([N+](=O)[O-])=CC([N+](=O)[O-])=C[C-]2[N+](=O)[O-]` (stereo not given) the figure was inactive: -9.69%; with `CCN(/C(=N/P(=O)(N1CCOCC1)N1CCOCC1)N1CCOCC1)c1ccc(OC)cc1`, inactive: 9.41%; with `CC(C)=N/N=C(\N)N[N+](=O)[O-]`, inactive: 6.25%.
With `CN(C)C(=O)OCCc1n(C)cc[n+]1C` the figure was inactive: 0.503%.
For `CC1CCN(C(=O)Oc2c(Cl)cc(Cl)c3cccnc23)CC1` the value was inactive: -15.6%; for `O=C(Nc1cc([As](=O)(O)O)ccc1O)c1ccccc1`, inactive: -4.91%.
In the case of `CC(C)(C)C(=O)NC(Sc1ccncn1)C(Cl)(Cl)Cl` (stereo not given), the activity, negative = inhibition was inactive: -9.61%.
With `O=[N+]([O-])c1ncn(CCn2ncnc2[N+](=O)[O-])n1` the figure was inactive: 0.38%; with `O=[N+]([O-])c1cccc(NC2=NCC(CBr)S2)c1` (stereo not given), inactive: -1.92%; with `O=C(O)CNc1ccc([As](=O)(O)O)cc1`, inactive: 11.6%.
For `O=C(O)c1ccccc1[As](=O)(O)O` the value was inactive: -1.18%.
With `CC(=O)Nc1ccc([As](=O)(O)O)cc1` the figure was inactive: -13.9%; with `O=P(Nc1nc2ccc(Cl)cc2s1)(c1ccccc1)c1ccccc1`, inactive: -4.16%; with `Cc1cc(SC(NC(=O)c2ccc(F)cc2)C(Cl)(Cl)Cl)ncn1` (stereo not given), inactive: -19.4%.
For `CN(C(=O)Cc1ccc(Cl)c(Cl)c1)[C@H]1CCCC[C@@H]1N1CCCC1`, the activity, negative = inhibition is inactive: 1.86% and inactive: 3.75%.
On to `Cc1ccc(NP(=O)(Oc2ccccc2F)Oc2ccccc2F)nc1`, for which the activity, negative = inhibition is inactive: -27.1%.
With `O=[N+]([O-])c1cc([N+](=O)[O-])c(CCN2CCOCC2)c([N+](=O)[O-])c1`, the activity, negative = inhibition was inactive: -25%.
For `CCN(N=Nc1nonc1N)c1nonc1N` the value was inactive: -2.02%; for `Nc1cccc2ccc([As](=O)(O)O)cc12`, inactive: 19.5%.
With `NC(=O)c1cc([N+](=O)[O-])cc([N+](=O)[O-])c1N` the figure was inactive: 9.15%.
For `CN(C(=O)Cc1ccc(Cl)c(Cl)c1)[C@H]1CCCC[C@H]1N1CCCC1` the value was inactive: 15.9%; for `Cc1ccc(N/C(=N/P(=O)(N2CCOCC2)N2CCOCC2)N2CCOCC2)cc1`, inactive: 1.03%; for `COc1ccccc1OP(=O)(Nc1ccc(C)cn1)Oc1ccccc1OC`, inactive: -4.33%.
On to `Cc1ccc(OP(=O)(Nc2nccs2)Oc2ccc(C)cc2)cc1`, for which the activity, negative = inhibition is inactive: 4.72%.
In the case of `Clc1ccc(Cl)c(NC2=NCC(CBr)S2)c1` (stereo not given), the activity, negative = inhibition was inactive: 3.65%.
With `CN1CCCC(OC(=O)C(c2ccccc2)c2ccccc2)C1` (stereo not given) the figure was inactive: 3.53%.
For `CC(C)CC(=O)NC(Sc1ccc(Cl)cc1)C(Cl)(Cl)Cl` (stereo not given) the value was inactive: 4.56%; for `Oc1ccccc1CNc1ccccn1`, inactive: 7.53%.
As to `Cc1c2non([O-])c-2c(C)[n+](=O)[n+]1[O-]`, the activity, negative = inhibition was inactive: -0.135%.
For `O=C(NC(Sc1ccncn1)C(Cl)(Cl)Cl)c1ccccc1` (stereo not given) the value was inactive: 1.58%.

For the origin of these results see PubChem BioAssay AID488837 (National Center for Advancing Translational Sciences (NCATS), 2010).
